Apparent affinities of Ab-14 variants for a coronavirus HR2 peptide

Source: Li et al. 2023 (doi:10.1038/s41467-023-39022-2), MIT Lincoln Laboratory and A-Alpha Bio; data file from the FLAb repository.

Antigen: PDVDLGDISGINAS, a 14-residue peptide of the SARS-CoV-2 spike HR2 region.

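Phage display of a naive human antibody library on the peptide gave the parent. Designed CDR sequences, proposed from the first random library and measured here. Group labels follow the data file (Ctrl: baseline library sampled from a position-specific scoring matrix, with some repeated check sequences; Rand: our label for a block that the file lists under HC and that is probably the random mutants of the ten best first-round binders; En: ensemble of fine-tuned language models; GP: Gaussian process model; HC: hill climbing; Gen: genetic algorithm; Gibbs: Gibbs sampling; a sequence that several methods proposed may carry one label only). AlphaSeq pools MATa yeast showing the antibodies with MATalpha yeast showing the peptide. After mating in shaken culture at 30 °C for 16 h, diploids were selected and their barcode pairs sequenced. Each replicate has its own calibration line, from reference interactions of the BCL2 family. There are six technical replicates.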

Each scFv is VH, a 15-residue (Gly4Ser)3 linker, VL, as in the parent Ab-14, and differs from it in the CDRs of the light chain only.
VH: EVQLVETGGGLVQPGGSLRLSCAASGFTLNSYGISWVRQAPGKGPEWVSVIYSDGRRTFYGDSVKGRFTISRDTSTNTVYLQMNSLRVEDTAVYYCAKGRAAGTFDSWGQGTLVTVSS
VL: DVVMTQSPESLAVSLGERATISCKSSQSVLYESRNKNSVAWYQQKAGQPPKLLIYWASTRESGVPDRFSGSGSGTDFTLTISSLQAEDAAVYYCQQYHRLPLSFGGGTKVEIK

The parent's light chain CDRs are KSSQSVLYESRNKNSVA, WASTRES, QQYHRLPLS; each variant's own CDRs replace them letter for letter.
Each Kd is an estimate from the mating assay, the geometric mean of the replicates in which the pair was seen; lower is stronger.
A pair that was not seen in any replicate is written "no signal"; this usually means weak binding, but a binder can also be missed.
The authors' rule: three or more of the six replicates give a measured affinity, fewer mean a poor binder.

| # | CDR-L1 | CDR-L2 | CDR-L3 | group | apparent Kd | seen in | signal with controls |
|---|---|---|---|---|---|---|---|
| 1 | KSGCGWLYESRNKNSVA | GASTRES | QQYHRLPLS | GP_HC | 5.7 nM | 6/6 | 2/18 |
| 2 | KVSQSHLYESRNKNSVA | NASTRES | QQYHRLPLM | GP_Gen | 290 pM | 6/6 | 1/18 |
| 3 | KMSQSQLYESRNKNSVA | NGSTRES | QQYHRLPLS | GP_Gibbs | 1.2 nM | 6/6 | 1/18 |
| 4 | KLPLATMQQSVSKNNVA | ELSTRGS | QQYHRLPLS | En_HC | 3.8 nM | 6/6 | 1/18 |
| 5 | MISQLFMYGSRNYNSVA | QASTRES | QQYDRLPLI | En_HC | 230 nM | 6/6 | 1/18 |
| 6 | NIQDNEGGLLSQKNSVA | STEERSD | QSYHRLPLS | En_Gibbs | 5.0 nM | 6/6 | 1/18 |
| 7 | KLSMFHNVESINKSNVA | EMVTREN | QQYDRLPLS | En_HC | 380 nM | 4/6 | 2/18 |
| 8 | KVSQSVLYESRNKNSVA | NASTRES | QQYHRLPLI | GP_Gen | 1.6 nM | 6/6 | 0/18 |
| 9 | KSSQSVLYESRNKNSVA | KASERES | QQYHRLPLS | Ctrl | 3.3 nM | 6/6 | 0/18 |
| 10 | KISQMVKVGSTHSNSIA | EEVTRAK | QQYHRLPLS | En_Gen | 5.7 nM | 6/6 | 2/18 |
| 11 | KSSQSVLFESRMKNSVA | DASTRCS | QQYHCLPLE | Rand | 37 nM | 1/6 | 0/18 |
| 12 | HISEMIFAQMKARNSVA | ENNTREA | QQYDRLPLS | En_HC | no signal | 0/6 | 0/18 |
| 13 | MFSQGVMVGWLTRNSVA | NSETREK | QQYDRLPLS | En_HC | 340 nM | 2/6 | 1/18 |
| 14 | SSSQEVLYESIHKNSVA | WASTRES | QQYHRLPLS | Ctrl | 44 nM | 3/6 | 1/18 |
| 15 | KSEGQVCYGDRNKNSVA | NASLREQ | QQYHRLPLS | GP_Gibbs | 1.3 nM | 6/6 | 1/18 |
| 16 | KLSQMPLYESRNANSVA | NASTREE | QQYHRLPLS | GP_Gibbs | 2.1 nM | 6/6 | 0/18 |
| 17 | KSSPSVLYESRNKNSVA | QASTRES | QQYHRLPLS | Ctrl | 900 pM | 6/6 | 0/18 |
| 18 | MISNVMNTLTREGNNVA | DLQEREK | QQYFRLPLS | En_Gen | 3.5 nM | 6/6 | 0/18 |
| 19 | KISQSVLYESATKNSVA | WASTRES | QQYHRLPLS | Ctrl | 8.1 nM | 6/6 | 3/18 |
| 20 | KLQQSDLYESRNKNSVA | HASTRES | QQYHRLPLS | GP_Gen | 860 pM | 6/6 | 0/18 |
| 21 | KLSQSQWYESRNSNSVA | NASNRLS | QQYHRLPLS | GP_Gibbs | 650 pM | 6/6 | 0/18 |
| 22 | KLSSEYFDSYGNRQAVA | ENEATSN | QQYSLLPLS | En_Gibbs | no signal | 0/6 | 0/18 |
| 23 | KLSGLMASSKFAKDSVA | ENNTRED | QQYDRLPLS | En_Gen | 370 nM | 3/6 | 0/18 |

Further variants, results first:

| # | apparent Kd | seen in | signal with controls | CDR-L1 | CDR-L2 | CDR-L3 | group |
|---|---|---|---|---|---|---|---|
| 24 | 1.4 nM | 6/6 | 3/18 | KLYFNVGTMAHNKDSIA | DMERRED | QQYHRLPLS | En_HC |
| 25 | 5.9 nM | 6/6 | 0/18 | KVSQSVLYESRNKNSVA | WASTRES | QQYHRLPLL | Ctrl |
| 26 | 4.6 nM | 6/6 | 0/18 | KLTQSTLYESRNKNSVA | WASTRLS | QQYHRLPLS | GP_HC |
| 27 | 120 nM | 5/6 | 2/18 | KSSQSVLYESRNKNSVA | WASERES | QQYHRLPLS | Ctrl |
| 28 | 610 pM | 6/6 | 2/18 | TIADVMGHISKNTNNVA | DMDTRGE | QQYNRLPLS | En_Gen |
| 29 | 2.1 nM | 6/6 | 0/18 | KLSQSVLYEMRNKNSVA | NASTRLS | QQYHRLPLS | GP_Gen |
| 30 | 91 nM | 6/6 | 0/18 | QVVDEQWAEGQNIQSIA | EGEVMKD | QQYNRLPLS | En_Gibbs |
| 31 | 1.4 nM | 6/6 | 1/18 | KFSQMVNTMSVSKSAVA | EMSTRPE | QQYNRLPLS | En_Gen |
| 32 | 41 nM | 1/6 | 0/18 | SLEMFTGMLNMYASSIA | NAHCLVQ | QQYYRLPIS | En_Gibbs |
| 33 | 890 pM | 6/6 | 2/18 | YLSQSVLYESRNKNSVA | NASTREY | QQYHRLPLM | GP_Gibbs |
| 34 | 9.1 nM | 6/6 | 0/18 | KLSMMDLYESRMSNSVA | MASTREK | QQYHRLPLS | GP_Gibbs |
| 35 | 680 pM | 6/6 | 0/18 | KLRQQTLYETRNKNSVA | HASTREE | QQYHRLPLS | GP_HC |
| 36 | no signal | 0/6 | 0/18 | KLSTLFYKESRNKNNVA | EMTTRGS | QQYDRLPLS | En_HC |
| 37 | 11 nM | 6/6 | 0/18 | KSSQSVLNESTNKNSVA | AASTRVS | QQYHRLPLS | Ctrl |
| 38 | 860 pM | 6/6 | 1/18 | KSSQSGLYESRNMNSVA | DASTRSS | QQYHRLPLS | Ctrl |
| 39 | 5.7 nM | 6/6 | 1/18 | RLSLEHTGYWEMMNNIA | QASTKQF | QQYDRLPLH | En_Gibbs |
| 40 | 9.5 µM | 2/6 | 4/18 | KMSQSVGYESENKNSVA | WASTNMS | QQYHRLPLS | Ctrl |
| 41 | 4.3 nM | 6/6 | 1/18 | MLDQMDGQMGGNTNNIA | DVNENRI | QQYHRLPLS | En_Gibbs |
| 42 | 420 pM | 6/6 | 1/18 | KLSQSELYESRNKNAVA | EASQRES | QQYHRLPLS | GP_Gen |
| 43 | 11 nM | 5/6 | 0/18 | KQSQSVLYESRNKNSVA | EASTRES | QQYHRLPLD | GP_HC |
| 44 | 2.2 nM | 6/6 | 0/18 | AFSESAFYGQRDENAIA | GADVVAK | QQYWRLPLT | En_Gibbs |
| 45 | 35 nM | 4/6 | 0/18 | KSSQSVLYEDRNANSVA | EASFRES | QQYHRFPWS | Ctrl |
| 46 | 3.7 nM | 6/6 | 0/18 | KFGQMVLTGAYVSNSVA | QMSTRAN | QQYHRLPLS | En_HC |
| 47 | 840 pM | 6/6 | 2/18 | KESQSWYYESRNKNSVA | GASTRES | QQYHRLPLS | GP_HC |

Repeated from above, the 2 best binders with a signal in all replicates:

CDR-L1	CDR-L2	CDR-L3	group	apparent Kd	seen in	signal with controls
KVSQSHLYESRNKNSVA	NASTRES	QQYHRLPLM	GP_Gen	290 pM	6/6	1/18
KLSQSELYESRNKNAVA	EASQRES	QQYHRLPLS	GP_Gen	420 pM	6/6	1/18

Background: pairings of all light chain designs with three empty control strains gave a value in 4% of cases (median 430 nM, 5th percentile 38 nM). Values in that range, when seen in few replicates, are hard to tell from nonspecific mating. For each scFv, signals with the empty controls are counted beside the result.
A sequence measured in both rounds can read differently, since the two assays cover different ranges.
Of ten entries with the parent sequence, four were seen in most replicates (averages 2.2 nM to 240 nM), three in one and three in none, so single entries are noisy.